## Apparent affinities of Ab-14 variants for a coronavirus HR2 peptide

From the AlphaSeq antibody data of Li et al. 2023 (doi:10.1038/s41467-023-39022-2), copy in the FLAb collection.

All variants were tested on one target, the spike HR2 peptide PDVDLGDISGINAS (SARS-CoV-2).

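This is the validation round: designs drawn from the data on random variants, tested in the same kind of assay. Group labels follow the data file (Ctrl: baseline library sampled from a position-specific scoring matrix, with some repeated check sequences; En: ensemble of fine-tuned language models; GP: Gaussian process model; HC: hill climbing; Gen: genetic algorithm; Gibbs: Gibbs sampling; a sequence that several methods proposed may carry one label only). In AlphaSeq, yeast of one mating type display the scFv and yeast of the other type display the target. Mating (16 h, 30 °C) was followed by selection of diploids and sequencing of their barcodes. A regression on co-assayed BCL2-family reference pairs converts the normalised counts of each replicate to an apparent Kd. Mating was done six times.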

Parent: Ab-14, a human scFv built as VH, three GGGGS repeats, VL. Only the CDRs of the light chain vary.
VH: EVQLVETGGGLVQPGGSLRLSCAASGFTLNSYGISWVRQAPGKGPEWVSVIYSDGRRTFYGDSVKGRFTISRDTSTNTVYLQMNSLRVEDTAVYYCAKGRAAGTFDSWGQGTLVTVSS
VL: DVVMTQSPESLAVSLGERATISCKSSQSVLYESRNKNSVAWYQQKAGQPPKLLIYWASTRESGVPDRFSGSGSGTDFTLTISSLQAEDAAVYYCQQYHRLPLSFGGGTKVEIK

Sequences are complete VL domains. The read-out is the apparent dissociation constant on a log10 scale (nM): the lower, the stronger. The mean shown is taken over the replicates in which the pair was detected. An entry "no signal" has no value in the source: the pair was not observed among the diploids in any replicate. This suggests poor binding but is not conclusive.

| # | VL | group | log10 Kd (nM), mean | detected |
|---|---|---|---|---|
| 1 | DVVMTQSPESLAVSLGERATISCALGDVTRMESNKKNSIAWYQQKAGQPPKLLIYDMSNRADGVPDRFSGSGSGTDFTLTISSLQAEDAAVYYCQQYHRLPLSFGGGTKVEIK | En_HC | 0.05 | 6/6 |
| 2 | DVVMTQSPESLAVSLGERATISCKISQSVLYESRNNNSVAWYQQKAGQPPKLLIYWASIREDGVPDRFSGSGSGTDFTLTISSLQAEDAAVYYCQQYHRLPLSFGGGTKVEIK | Ctrl | 0.79 | 6/6 |
| 3 | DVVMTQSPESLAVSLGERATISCKMSQSVLYESRNKNSVAWYQQKAGQPPKLLIYEASTREQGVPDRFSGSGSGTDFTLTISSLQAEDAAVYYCQQYHRLPLSFGGGTKVEIK | GP_Gen | -0.15 | 6/6 |
| 4 | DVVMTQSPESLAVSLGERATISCKQSQSVLFESRNKNSVAWYQQKAGQPPKLLIYMASTRESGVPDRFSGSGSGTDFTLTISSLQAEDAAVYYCQQYHRLPLSFGGGTKVEIK | GP_HC | 0.99 | 6/6 |
| 5 | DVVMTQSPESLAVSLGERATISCKSSQSELYESRNKNSVAWYQQKAGQPPKLLIYEASQRESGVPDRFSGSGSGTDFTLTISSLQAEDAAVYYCQQYHRLPLSFGGGTKVEIK | GP_Gen | 0.08 | 6/6 |
| 6 | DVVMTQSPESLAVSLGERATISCMVQQLYNMGQFAINSVAWYQQKAGQPPKLLIYQASQRNAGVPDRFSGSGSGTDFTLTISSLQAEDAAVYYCQQYDRLPLIFGGGTKVEIK | En_Gen | 1.99 | 2/6 |
| 7 | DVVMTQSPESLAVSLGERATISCKCQQSSDYESRNFNSVAWYQQKAGQPPKLLIYNASTRCSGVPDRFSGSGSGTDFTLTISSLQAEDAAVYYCQQYHRLPLSFGGGTKVEIK | GP_Gibbs | 0.45 | 6/6 |
| 8 | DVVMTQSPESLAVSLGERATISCKLSMSVWYEARMCNSVAWYQQKAGQPPKLLIYEASTRESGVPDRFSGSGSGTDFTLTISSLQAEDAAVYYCQQYHRLPLSFGGGTKVEIK | GP_Gibbs | 0.18 | 6/6 |
| 9 | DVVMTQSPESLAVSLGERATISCTISQMLLMQTSHKNSVAWYQQKAGQPPKLLIYGEETRYQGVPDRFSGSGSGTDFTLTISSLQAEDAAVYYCQQYHRLPLSFGGGTKVEIK | En_HC | 0.88 | 6/6 |
| 10 | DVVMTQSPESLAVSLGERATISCTIGQTLMSGVRNRSNVAWYQQKAGQPPKLLIYEVSERLNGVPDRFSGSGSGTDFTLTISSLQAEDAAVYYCQQYDRLPLFFGGGTKVEIK | En_Gen | 1.01 | 6/6 |
| 11 | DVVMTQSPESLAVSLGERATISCKSSPSVLYESRNKNSVAWYQQKAGQPPKLLIYAVSTRESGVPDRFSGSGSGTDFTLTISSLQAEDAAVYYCQQYHRLPLSFGGGTKVEIK | Ctrl | 0.88 | 6/6 |
| 12 | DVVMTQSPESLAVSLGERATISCALVAQNLQNMDKLNSIAWYQQKAGQPPKLLIYDQSQTQEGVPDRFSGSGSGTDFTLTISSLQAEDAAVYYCQQYFRLPFAFGGGTKVEIK | En_Gibbs | no signal | 0/6 |
| 13 | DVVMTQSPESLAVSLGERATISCMISQLYNMGQFAINSVAWYQQKAGQPPKLLIYQASIRNEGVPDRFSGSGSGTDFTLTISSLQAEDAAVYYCQQYDRLPLTFGGGTKVEIK | En_Gen | 1.37 | 6/6 |
| 14 | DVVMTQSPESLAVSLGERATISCKVSQSWLYESRNKNSVAWYQQKAGQPPKLLIYNASKRESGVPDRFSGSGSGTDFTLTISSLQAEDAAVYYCQQYHRLPLSFGGGTKVEIK | GP_Gen | -0.21 | 6/6 |
| 15 | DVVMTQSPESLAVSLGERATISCKASQSVLYESDNKFSVAWYQQKAGQPPKLLIYGASTRESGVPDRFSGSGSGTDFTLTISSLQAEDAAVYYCQQYHRLPLSFGGGTKVEIK | Ctrl | 0.89 | 6/6 |
| 16 | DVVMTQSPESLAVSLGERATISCKSYQSILYESMNKYSVAWYQQKAGQPPKLLIYWASTRESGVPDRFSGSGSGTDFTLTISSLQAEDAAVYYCQQYHRLPISFGGGTKVEIK | Ctrl | no signal | 0/6 |
| 17 | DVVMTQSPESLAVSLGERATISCKLSQSVLYESRNSNSVAWYQQKAGQPPKLLIYEASTRESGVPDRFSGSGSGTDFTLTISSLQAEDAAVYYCQQYHRLPLSFGGGTKVEIK | GP_Gen | -0.25 | 6/6 |

The first 2 variants above that were never detected:

{"VL": "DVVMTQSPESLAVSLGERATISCALVAQNLQNMDKLNSIAWYQQKAGQPPKLLIYDQSQTQEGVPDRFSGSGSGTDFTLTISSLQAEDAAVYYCQQYFRLPFAFGGGTKVEIK", "group": "En_Gibbs", "log10 Kd (nM), mean": "no signal", "detected": "0/6"}
{"VL": "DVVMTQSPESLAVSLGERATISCKSYQSILYESMNKYSVAWYQQKAGQPPKLLIYWASTRESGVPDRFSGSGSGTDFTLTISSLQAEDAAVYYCQQYHRLPISFGGGTKVEIK", "group": "Ctrl", "log10 Kd (nM), mean": "no signal", "detected": "0/6"}

The range of this assay differs from that of the first round, and the authors advise against merging the two. The parent sequence was in this pool as ten entries: three were never detected, three once, and four in most replicates, with averages from 0.34 to 2.37. Three control strains display no target. For all light chain designs, 4% of the pairings with them gave a signal, with a median of 2.64 and one signal in twenty below 1.59, so weak values seen in few replicates may be background. In the paper, a design with two or fewer of six values counts as a poor binder.